## Antibody variant affinities, Ab-14 light chain, assay B

Target peptide (SARS-CoV-2 spike, HR2 region): PDVDLGDISGINAS

Each scFv is VH, three GGGGS repeats, VL, as in the parent Ab-14, and differs from it in the CDRs of the light chain only.
VH: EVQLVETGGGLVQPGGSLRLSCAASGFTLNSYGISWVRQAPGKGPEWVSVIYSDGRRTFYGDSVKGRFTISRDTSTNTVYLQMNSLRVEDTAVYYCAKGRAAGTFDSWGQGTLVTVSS
VL: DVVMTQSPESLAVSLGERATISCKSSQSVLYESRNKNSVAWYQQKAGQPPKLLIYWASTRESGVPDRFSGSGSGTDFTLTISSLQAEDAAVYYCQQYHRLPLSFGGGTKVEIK

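The starting antibody came from a phage panning campaign against this peptide. The variants were designed computationally from a first round of random CDR variants and then made and measured. Group labels follow the data file (Ctrl: baseline library sampled from a position-specific scoring matrix, with some repeated check sequences; En: ensemble of fine-tuned language models; GP: Gaussian process model; GPLM: also part of the Gaussian process libraries; HC: hill climbing; Gen: genetic algorithm; Gibbs: Gibbs sampling; a sequence that several methods proposed may carry one label only). The assay is AlphaSeq: two haploid yeast populations carry antibody and antigen on their surface. Mating (16 h, 30 °C) was followed by selection of diploids and sequencing of their barcodes. Read counts were normalised to the haploid input and turned into Kd by a linear fit to BCL2-family pairs of known affinity, for each replicate. The assay was run in six technical replicates.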

Each variant is given by its three light chain CDRs, as the data file delimits them; those of the parent are KSSQSVLYESRNKNSVA, WASTRES, QQYHRLPLS.
Scale: log10 of Kd in nM, estimated from mating counts; low values are strong binders.
Averages over replicates are reported, and they cover detected replicates only.
A pair that was not seen in that replicate is written "nd"; this usually means weak binding, but a binder can also be missed.

log10 Kd (nM) by replicate | mean log10 Kd (nM) | empty controls | CDR-L1 | CDR-L2 | CDR-L3 | group
-0.74 / -0.52 / -0.49 / -0.83 / 0.30 / -0.35 | -0.44 | 0 of 18 | KVSQSYLYESRNKNSVA | DASTRES | QQYHRLPLS | GP_Gen
0.12 / -0.08 / 0.07 / -0.12 / 0.04 / -0.15 | -0.02 | 0 of 18 | KLSMSVLYESRNKNSVA | NASTRES | QQYHRLPLI | GP_Gibbs
0.39 / 0.33 / 0.41 / 0.24 / 0.22 / 0.50 | 0.35 | 1 of 18 (2.48) | MFSQTVMYESTMRNNVA | QTSTREE | QQYDHLPLS | En_HC
nd / nd / nd / nd / 2.14 / nd | 2.14 | 1 of 18 (3.89) | HIDKFNFSEGEKWNAIA | QDATRLQ | QSYQRLPLA | En_Gibbs
0.74 / 0.85 / 0.54 / 0.45 / 0.65 / 0.33 | 0.59 | 2 of 18 (1.55) | KLSMITGHMSVQKNNVA | EMETREN | QQYDRLPLS | En_Gen
nd / nd / nd / nd / nd / nd | nd | 0 of 18 | KASQSVLYESRNKNSVA | WASMRES | QQYSRLGLF | Ctrl
0.82 / 0.76 / 0.46 / 1.05 / 0.69 / 0.72 | 0.75 | 2 of 18 (3.10) | KLANEMYQGSLVQANVA | EAKELWE | QQYGHLPLA | En_Gibbs
0.04 / -0.01 / 0.02 / -0.19 / -0.10 / -0.01 | -0.04 | 1 of 18 (3.46) | KAQQSDLYESRNKNSVA | SASTRSS | QQYHRLPLS | GP_Gibbs
nd / 2.00 / nd / nd / 2.49 / 2.04 | 2.18 | 1 of 18 (2.05) | LSSQSGLYESRNKNSVA | WASTRES | QQYHRLPLS | Ctrl
nd / nd / nd / nd / nd / nd | nd | 0 of 18 | MFDQQTMNENDKNNAVA | EVTHLVN | QQYAQLPLI | En_Gibbs
0.19 / 0.44 / 0.66 / 0.96 / 0.26 / -0.02 | 0.42 | 0 of 18 | TISMVMNHMTRIDHNVA | NQDMREN | QQYDRLPLS | En_Gen
0.54 / 0.42 / 0.19 / 0.32 / 0.31 / 0.40 | 0.36 | 3 of 18 (2.28) | KVQQMWLYGSRNCNSVA | NASQREE | QQYHRLPLS | GP_Gibbs
1.42 / 1.40 / 1.57 / 1.09 / 1.73 / 1.13 | 1.39 | 1 of 18 (2.08) | KSSQSVLYESRNKNNVA | WASERES | QQYHRLPLS | Ctrl
0.74 / 1.07 / 1.07 / 0.41 / 0.79 / 1.49 | 0.93 | 1 of 18 (3.64) | KSSQSVVDESRNKNSVA | WASTRED | QQYHRLPLS | Ctrl
0.58 / 0.63 / 0.46 / 0.13 / 0.45 / 0.68 | 0.49 | 3 of 18 (2.96) | KLRQSTLYESRNPNSVA | MASTRES | QQYHRLPLS | GP_HC
0.40 / 0.03 / -0.06 / 0.08 / 0.23 / 0.03 | 0.12 | 1 of 18 (3.18) | KLSQQDWYEQRNCNSVA | QASVREQ | QQYHRLPLS | GP_Gibbs
-0.29 / -0.50 / -0.47 / -0.36 / -0.52 / -0.37 | -0.42 | 0 of 18 | KLSQSVLYEPRNKQSVA | DASTRYS | QQYHRLPLS | GP_Gibbs
0.52 / 0.71 / 0.25 / 0.18 / -0.04 / 0.38 | 0.33 | 0 of 18 | QITQLVGYGQRNKNSVA | QMSTREN | QQYDRLPLS | En_HC
0.06 / 0.03 / -0.06 / -0.18 / -0.09 / -0.01 | -0.04 | 0 of 18 | KMSQTMLYESANMNSVA | AASTPES | QQYHRLPLS | Ctrl
0.53 / 0.52 / 0.98 / 0.82 / 0.73 / 0.73; 0.27 / 0.26 / 0.34 / -0.16 / 0.27 / -0.07 | 0.44 | 0 of 36 | KSSQSVLYESRNKNSVA | NASTRES | QQYHRLPLS | Ctrl+GPLM_HC
0.65 / 0.57 / 0.10 / 0.01 / -0.01 / 0.10 | 0.24 | 1 of 18 (2.16) | KSSISYLGESRNKNSVA | EASTRES | QQYHRLPLS | GP_HC
1.06 / 1.00 / 1.19 / 1.02 / 1.76 / 1.46 | 1.25 | 3 of 18 (2.68) | RLQQEHVGYPKKMDAIA | QGSQRCH | QSYDRLPLS | En_Gibbs
nd / nd / nd / nd / nd / nd | nd | 1 of 18 (1.68) | KFSQSVLYESRNKNSVA | EASTRMS | QQYHRLPLS | GP_Gen
nd / 2.59 / nd / nd / nd / nd | 2.59 | 1 of 18 (2.27) | MISQLYNMGTFAINSVA | QATIRNS | QQYDRLPLV | En_Gen
1.52 / nd / nd / nd / 2.00 / 1.07 | 1.53 | 3 of 18 (2.05) | TLHANIEYGGGTWKSIA | DNVQRAD | QYYQRLPLG | En_Gibbs
nd / nd / nd / nd / nd / nd | nd | 0 of 18 | KISQSVLYESRNKNGVA | WASTRES | QQIHRMPLC | Ctrl
1.17 / 0.93 / 0.69 / 0.68 / 1.09 / 0.63 | 0.87 | 0 of 18 | SIRQVGCDNYRNHSNIA | DATQIEK | QQYSMLPLS | En_Gibbs
0.58 / 0.67 / 0.68 / 0.39 / 0.98 / 1.19 | 0.75 | 0 of 18 | KLSQSVLLESRNKNSVA | WASTREE | QQYHRLPLS | Ctrl
nd / 0.03 / nd / nd / nd / nd | 0.03 | 0 of 18 | IIDQIMYHGNKRANSIA | QASERVN | QQYHHLPLQ | En_Gen
1.99 / nd / 1.98 / 1.03 / 2.90 / 2.73 | 2.13 | 1 of 18 (2.90) | KSSQSDMGESRNKNSVA | EASTRSS | QQYHRLPLD | Ctrl
3.23 / 1.36 / 0.57 / 0.24 / 0.61 / 0.56 | 1.10 | 0 of 18 | HSSPSVLYEDRNGNSVA | NASTRES | QQYHRLPLS | GP_HC
2.21 / nd / 2.36 / nd / nd / nd | 2.29 | 0 of 18 | KVSQSVLYESRNKNSVA | WASTRES | QQYHQDPLS | Ctrl
1.86 / 1.33 / 1.76 / 1.57 / 1.42 / 2.08 | 1.67 | 0 of 18 | SLAGTLHFNQSGGSNVA | EVQMREQ | QQYFRLPLG | En_Gibbs
0.09 / -0.02 / 0.04 / -0.32 / -0.08 / 0.16 | -0.02 | 2 of 18 (2.52) | KLEGSELYESRNANSVA | NASTRMS | QQYKRLPLS | GP_Gibbs
nd / 1.74 / 0.24 / 0.88 / 1.17 / 1.46 | 1.10 | 0 of 18 | SMFEKEYAELQNENNIA | DTTARMV | QHYFRLPLL | En_Gibbs
1.09 / 0.88 / 0.94 / 0.54 / 0.95 / 0.98 | 0.90 | 0 of 18 | QISMNLEIYDQEQWNVA | HGEMRTE | QQYHKLPLS | En_Gibbs
nd / 2.07 / 1.56 / 1.11 / 1.58 / 2.25 | 1.71 | 0 of 18 | KVLQSVVYEERNKNSVA | HASTREA | QQYHRLPLS | GP_HC
0.21 / 0.29 / 0.17 / -0.01 / 0.15 / 0.48 | 0.21 | 0 of 18 | QLSMWEQNGTRGYSSVA | DTDVRMA | QQYHRLPLS | En_Gibbs
0.25 / 0.18 / -0.07 / -0.64 / -0.42 / 0.04 | -0.11 | 0 of 18 | KLSWSWLYESRNWNSVA | DASTRES | QQYHRLPLS | GP_Gibbs

Picked from the list: the 3 lowest averages where every replicate gave a value.

{"CDR-L1": "KVSQSYLYESRNKNSVA", "CDR-L2": "DASTRES", "CDR-L3": "QQYHRLPLS", "group": "GP_Gen", "log10 Kd (nM) by replicate": "-0.74 / -0.52 / -0.49 / -0.83 / 0.30 / -0.35", "mean log10 Kd (nM)": "-0.44", "empty controls": "0 of 18"}
{"CDR-L1": "KLSQSVLYEPRNKQSVA", "CDR-L2": "DASTRYS", "CDR-L3": "QQYHRLPLS", "group": "GP_Gibbs", "log10 Kd (nM) by replicate": "-0.29 / -0.50 / -0.47 / -0.36 / -0.52 / -0.37", "mean log10 Kd (nM)": "-0.42", "empty controls": "0 of 18"}
{"CDR-L1": "KLSWSWLYESRNWNSVA", "CDR-L2": "DASTRES", "CDR-L3": "QQYHRLPLS", "group": "GP_Gibbs", "log10 Kd (nM) by replicate": "0.25 / 0.18 / -0.07 / -0.64 / -0.42 / 0.04", "mean log10 Kd (nM)": "-0.11", "empty controls": "0 of 18"}

Of ten entries with the parent sequence, four were seen in most replicates (averages 0.34 to 2.37), three in one and three in none, so single entries are noisy.
Empty control strains, which show no peptide, gave a signal in 4% of pairings with all light chain designs; the median was 2.64 and 95% of these signals were weaker than 1.59. No background was subtracted. Also given: how often the same scFv was detected with the empty control strains, with their mean in brackets.
A sequence measured in both rounds can read differently, since the two assays cover different ranges.
The authors' rule: three or more of the six replicates give a measured affinity, fewer mean a poor binder.
Where one sequence has several entries in the source, the replicates are listed entry by entry, parted by semicolons.

Data: MIT Lincoln Laboratory AlphaSeq set, Li et al. 2023, doi:10.1038/s41467-023-39022-2, as distributed in FLAb.